Assay results taken from ChEMBL document CHEMBL3046181, “Tricolorin A as a natural herbicide” (Molecules, 2013).

Experiments:
Assay type in all cases: functional, organism-based
Lolium multiflorum [1] = experiment: Herbicidal activity against Lolium multiflorum (Italian ryegrass) assessed as inhibition of root elongation after 5 days
Trifolium alexandrinum [2] = experiment: Herbicidal activity against Trifolium alexandrinum assessed as inhibition of root elongation after 5 days
Lolium multiflorum [3] = experiment: Herbicidal activity against Lolium multiflorum (Italian ryegrass) assessed as inhibition of seed germination after 5 days
Triticum aestivum [4] = experiment: Herbicidal activity against Triticum vulgare var. Salamanca (wheat) assessed as inhibition of seed germination after 4 days
Trifolium alexandrinum [5] = experiment: Herbicidal activity against Trifolium alexandrinum assessed as inhibition of shoot elongation after 5 days
Physalis ixocarpa [6] = experiment: Herbicidal activity against Physalis ixocarpa assessed as inhibition of shoot elongation after 5 days
Physalis ixocarpa [7] = experiment: Herbicidal activity against Physalis ixocarpa assessed as inhibition of seed germination after 5 days
Trifolium alexandrinum [8] = experiment: Herbicidal activity against Trifolium alexandrinum assessed as inhibition of seed germination after 5 days
Lolium multiflorum [9] = experiment: Herbicidal activity against Lolium multiflorum (Italian ryegrass) assessed as inhibition of shoot elongation after 5 days
Triticum aestivum [10] = experiment: Herbicidal activity against Triticum vulgare var. Salamanca (wheat) assessed as inhibition of root elongation after 4 days
Triticum aestivum [11] = experiment: Herbicidal activity against Triticum vulgare var. Salamanca (wheat) assessed as inhibition of shoot elongation after 4 days
Physalis ixocarpa [12] = experiment: Herbicidal activity against Physalis ixocarpa assessed as inhibition of root elongation after 5 days

Measured: inhibition

CCCCC[C@H]1CCCCCCCCCC(=O)O[C@H]2[C@H](O)[C@@H](CO)O[C@@H](O[C@H]3[C@H](O1)O[C@H](C)[C@H](O)[C@@H]3O)[C@@H]2O[C@@H]1O[C@@H](C)[C@H](OC(=O)[C@@H](C)CC)[C@@H](O[C@@H]2O[C@@H](C)[C@H](O)[C@@H](O)[C@H]2O)[C@H]1OC(=O)[C@@H](C)CC [TRICOLORIN A]
active: Lolium multiflorum [1] Dose-dependent effect | Trifolium alexandrinum [2] Dose-dependent effect | Lolium multiflorum [3] Dose-dependent effect | Triticum aestivum [4] Dose-dependent effect | Trifolium alexandrinum [5] Dose-dependent effect | Physalis ixocarpa [6] Dose-dependent effect | Physalis ixocarpa [7] Dose-dependent effect | Trifolium alexandrinum [8] Dose-dependent effect | Lolium multiflorum [9] Dose-dependent effect | Triticum aestivum [10] Dose-dependent effect | Triticum aestivum [11] Dose-dependent effect | Physalis ixocarpa [12] Dose-dependent effect
